# Data taken from ChEMBL document CHEMBL5634116, “Strategies for developing retinoic acid receptor alpha-selective antagonists as novel agents for male contraception” (Eur J Med Chem, 2023).
# Amino acid sequences for entries named in this document (tags omitted).
# UniProt P10276, whole entry: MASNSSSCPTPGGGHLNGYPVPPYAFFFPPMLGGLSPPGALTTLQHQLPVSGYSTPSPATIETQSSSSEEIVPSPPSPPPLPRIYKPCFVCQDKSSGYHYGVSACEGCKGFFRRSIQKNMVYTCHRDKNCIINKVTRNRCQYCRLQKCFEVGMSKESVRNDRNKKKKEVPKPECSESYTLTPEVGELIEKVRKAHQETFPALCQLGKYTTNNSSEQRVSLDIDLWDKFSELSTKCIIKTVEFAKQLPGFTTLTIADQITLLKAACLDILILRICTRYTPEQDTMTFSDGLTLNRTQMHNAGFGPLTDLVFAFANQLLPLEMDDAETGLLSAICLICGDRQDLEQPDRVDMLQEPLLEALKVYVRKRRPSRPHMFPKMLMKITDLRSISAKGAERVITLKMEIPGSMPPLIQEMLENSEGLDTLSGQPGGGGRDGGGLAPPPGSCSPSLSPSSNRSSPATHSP
# UniProt P13631, whole entry: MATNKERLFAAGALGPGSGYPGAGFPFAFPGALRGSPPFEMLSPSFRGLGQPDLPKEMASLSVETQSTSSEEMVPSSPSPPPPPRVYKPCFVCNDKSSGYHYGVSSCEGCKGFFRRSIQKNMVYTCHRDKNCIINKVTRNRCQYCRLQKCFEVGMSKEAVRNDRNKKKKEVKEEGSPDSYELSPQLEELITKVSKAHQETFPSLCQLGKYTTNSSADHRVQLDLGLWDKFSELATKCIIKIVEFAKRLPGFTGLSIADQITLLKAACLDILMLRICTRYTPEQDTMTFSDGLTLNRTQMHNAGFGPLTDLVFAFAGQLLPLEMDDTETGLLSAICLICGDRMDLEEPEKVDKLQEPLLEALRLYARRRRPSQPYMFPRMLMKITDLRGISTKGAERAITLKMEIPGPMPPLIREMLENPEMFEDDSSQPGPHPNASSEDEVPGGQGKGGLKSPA
# UniProt P10826, whole entry: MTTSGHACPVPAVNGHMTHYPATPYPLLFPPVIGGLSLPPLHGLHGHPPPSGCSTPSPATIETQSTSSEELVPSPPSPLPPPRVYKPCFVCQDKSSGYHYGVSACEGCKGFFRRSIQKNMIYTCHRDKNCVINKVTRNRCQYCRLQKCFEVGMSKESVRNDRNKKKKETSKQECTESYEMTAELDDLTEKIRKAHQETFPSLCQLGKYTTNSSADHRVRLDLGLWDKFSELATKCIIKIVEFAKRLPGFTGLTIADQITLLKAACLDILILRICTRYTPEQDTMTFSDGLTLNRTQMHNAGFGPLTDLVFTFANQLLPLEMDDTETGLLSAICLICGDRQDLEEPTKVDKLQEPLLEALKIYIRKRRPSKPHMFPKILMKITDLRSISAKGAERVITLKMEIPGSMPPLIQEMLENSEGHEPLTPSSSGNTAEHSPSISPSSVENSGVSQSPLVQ
# How the values were obtained:
# [1] = target: Retinoic acid receptor alpha (Homo sapiens, UniProt P10276); test: Agonist activity at recombinant human RAR-alpha expressed in mammalian cells by luciferase reporter gene based transactivation assay relative to control; format: cell-based
# Summary of the method: (§1)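 Transactivation in proprietary reporter cells expressing recombinant human RAR subtype with RARE-linked beetle luciferase. Compounds in DMSO (final 0.4%), 8-point dose response in triplicate; cells added, incubated overnight at 37 °C, 5% CO2, then luciferase reagent 30 min r.t., luminescence read.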
# in vitro = settings: human, Caco-2
# [2] = target: Retinoic acid receptor gamma (Homo sapiens, UniProt P13631); test: Agonist activity at recombinant human RAR-gamma expressed in mammalian cells by luciferase reporter gene based transactivation assay relative to control; format: cell-based; summary of the method: as §1
# [3] = target: Retinoic acid receptor beta (Homo sapiens, UniProt P10826); test: Agonist activity at recombinant human RAR-beta expressed in mammalian cells by luciferase reporter gene based transactivation assay relative to control; format: cell-based; settings: filed as agonist; summary of the method: as §1
smiles,measurement,setting,value
Cc1ccc(C2=CC(C)(C)Oc3ccc(C(=O)Nc4ccc(C(=O)O)cc4)cc32)cc1,Emax,[1],0%
same,recovery at 10 µM,in vitro,98%
same,Emax,[2],22%
same,Emax,[3],65%
